Data reported in ChEMBL document CHEMBL3352357, “Synthesis and pharmacological evaluation of 5-pyrrolidinylquinoxalines as a novel class of peripherally restricted κ-opioid receptor agonists” (J Med Chem, 2014).

By UniProt entry, the sequences of proteins in these tests, tags left out.
UniProt P41144, whole entry: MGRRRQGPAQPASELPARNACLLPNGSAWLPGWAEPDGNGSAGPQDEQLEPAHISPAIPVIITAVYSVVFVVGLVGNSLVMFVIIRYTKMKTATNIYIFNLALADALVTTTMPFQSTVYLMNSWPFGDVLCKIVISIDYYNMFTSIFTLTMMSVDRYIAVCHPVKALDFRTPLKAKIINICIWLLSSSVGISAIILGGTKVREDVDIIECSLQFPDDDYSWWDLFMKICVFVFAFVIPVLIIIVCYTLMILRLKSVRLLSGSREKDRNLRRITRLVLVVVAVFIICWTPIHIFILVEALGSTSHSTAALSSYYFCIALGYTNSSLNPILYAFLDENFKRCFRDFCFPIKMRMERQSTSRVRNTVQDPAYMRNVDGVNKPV

Legend:
[1] = molecular target: Kappa-type opioid receptor (Cavia porcellus, UniProt P41144); assay: Displacement of [3H]U-69593 from kappa opioid receptor in guinea pig brain membranes after 2 hrs by scintillation counting analysis; format: cell membranes, Membrane
Mus musculus [2] = assay: Analgesic activity in male NMRI mouse assessed as inhibition of phenylquinone-induced writhing at 21.5 mg/kg, iv after 10 mins challenged with phenylquinone (reference value: 0%)
Mus musculus [3] = assay: Analgesic activity in male icv dosed NMRI mouse assessed as 1 mN von frey filaments-induced referred allodynia treated after 5 mins challenged with mustard oil measured after 20 to 40 mins
Mus musculus [4] = assay: Analgesic activity in male icv dosed NMRI mouse assessed as 16 mN von frey filaments-induced hyperalgesia treated after 5 mins challenged with mustard oil measured after 20 to 40 mins
Mus musculus [5] = assay: Analgesic activity in male NMRI mouse assessed as inhibition of phenylquinone-induced writhing at 3.16 mg/kg, iv after 10 mins challenged with phenylquinone (reference value: 0%)

Row | SMILES | Ki [1] | inhibition (INH) (Mus musculus [2]) | ED50 (Mus musculus [3]) | ED50 (Mus musculus [4]) | inhibition (INH) (Mus musculus [5])
1 | O=C(c1ccccc1)N1CCN(C(=O)Cc2ccc(Cl)c(Cl)c2)C2C(N3CCCC3)CCCC21 (stereo not given) | 15 nM | – | – | – | –
2 | O=C(Cc1ccc(Cl)c(Cl)c1)N1CCNC2CCCC(N3CCC(O)C3)C21 (racemic) | – | 93% | 3.31 µg | 2.16 µg | 5.1%
